System: LMCD1 transfectants in SK-Hep1 cells
Test: Wound healing assay in LMCD1 stable transfectants of SK-Hep1 cells
Details: 25 μM; mock and wtLMCD1 cells; 6 h pre-treatment, drug present during migration

## CCN(CC)CCCC(C)Nc1nc(C)cc(Nc2ccc3nc(C)cc(N)c3c2)n1 (stereo not shown) [NSC23766]
  migration inhibition (wound closure): 12.1˜16.4%
